# System: E. coli ATCC 25922
# Assay: Antibiotic interaction assay (Wimley), 2/3 broth microdilution: MIC alone, MIC of combination, FICI
# Format: cell-based
# Experimental: Synergy was evaluated by an antibiotic interaction assay (Wimley, 2015) Using the method of Wimley (BBA, 2015, v. 1848(1), pp. 8-15), synergy between the membrane-activating peptide and an antibiotic was measured by an FICI value (FIG. 17). […] Thus, to accurately examine synergy, a ⅔ dilution method which observes MIC at denser concentration intervals is advantageous over a ½ dilution method in statistical terms. Namely, starting with the concentration of the membrane-activating peptide (first line) which corresponds to 3×MIC, ⅔ dilution is performed, and the MIC of the peptide is measured. In the same manner, the MIC of an antibiotic or repositioning drug (second line) is measured. In the third line, the two compounds are mixed after putting half amount each, and the MIC thereof is measured.
# A broth microdilution technique (⅔ dilution) was used together with an MH broth. E. coli treated with an antibiotic and the peptide was incubated in a 37° C. incubator for 18 hours.
# To measure the synergy between the membrane-activating peptides and the repositioning drug, a 10× compound was prepared, and then serially diluted ⅔-fold with distilled water. […] After addition of the bacterial cells, plate was incubated at 37° C. for 18 hours, and then the OD value at UV-Vis (600 nm) was measured. […]
compound,measurement,value
CN[C@H](CC(C)C)C(=O)N[C@H]1C(=O)N[C@@H](CC(N)=O)C(=O)N[C@H]2C(=O)N[C@H]3C(=O)N[C@H](C(=O)N[C@H](C(=O)O)c4cc(O)cc(O)c4-c4cc3ccc4O)[C@H](O)c3ccc(c(Cl)c3)Oc3cc2cc(c3O[C@@H]2O[C@H](CO)[C@@H](O)[C@H](O)[C@H]2O[C@H]2C[C@](C)(N)[C@H](O)[C@H](C)O2)Oc2ccc(cc2Cl)[C@H]1O [vancomycin],synergy with KL-L9P,not synergistic

# Source: US20180339016A1 (priority 2015, published 2018)
